## Membrane permeability of cyclic peptides

Data: CycPeptMPDB; original report Townsend et al. 2020, doi:10.26434/chemrxiv.13335941.v1.

PAMPA is the parallel artificial membrane permeability assay, which has no cells and reads passive diffusion.
Values are log10 P with P in cm/s, so -5 is more permeable than -7.

CC(C)C[C@@H]1NC(=O)[C@@H](C)NC(=O)[C@@H]2CCCN2C(=O)[C@H](Cc2ccccc2)NC(=O)[C@H](CC(C)C)NC(=O)[C@@H]2CCCN2C(=O)[C@@H](CC(C)C)NC1=O is reported with PAMPA -6.33 (log10 cm/s).
CC(C)C[C@@H]1NC(=O)[C@H](C)N(C)C(=O)[C@H](Cc2ccccc2)NC(=O)CN(Cc2ccccc2)C(=O)[C@@H]2CCCN2C(=O)[C@@H](CC(C)C)NC1=O is reported with PAMPA -5.73 (log10 cm/s).
CC(C)C[C@@H]1C(=O)N[C@@H](Cc2ccccc2)C(=O)N[C@@H](C)C(=O)N[C@H](CC(C)C)C(=O)N[C@H](CC(C)C)C(=O)N2CCC[C@@H]2C(=O)N1C is reported with PAMPA -6.91 (log10 cm/s).
CC(C)C[C@@H]1NC(=O)[C@H](CC(C)C)N(C)C(=O)[C@@H](C)NC(=O)[C@H]2CCCN2C(=O)[C@H](Cc2ccccc2)NC(=O)[C@@H](CC(C)C)N(C)C(=O)[C@H]2CCCN2C1=O is reported with PAMPA -5.38 (log10 cm/s).
CC(C)C[C@@H]1C(=O)N[C@H](CC(C)C)C(=O)N2CCC[C@@H]2C(=O)N(Cc2ccccc2)CC(=O)N[C@@H](Cc2ccccc2)C(=O)N[C@@H](C)C(=O)N1C is reported with PAMPA -5.49 (log10 cm/s).
CC(C)C[C@@H]1NC(=O)[C@@H]2CCCN2C(=O)[C@@H](CC(C)C)N(C)C(=O)[C@H](CC(C)C)NC(=O)C[C@H](Cc2ccccc2)NC(=O)[C@@H]2CCCN2C(=O)[C@H](Cc2ccccc2)NC1=O is reported with PAMPA -5.33 (log10 cm/s).
CC(C)C[C@@H]1NC(=O)C[C@H](Cc2ccccc2)NC(=O)[C@H](Cc2ccccc2)NC(=O)[C@H](CC(C)C)NC(=O)[C@@H]2CCCN2C(=O)[C@@H](CC(C)C)NC1=O is reported with PAMPA -4.84 (log10 cm/s).
CC(C)C[C@@H]1NC(=O)[C@H]2CCCN2C(=O)[C@H](CC(C)C)N(C)C(=O)[C@@H](CC(C)C)NC(=O)[C@H](C)N(C)C(=O)[C@H]2CCCN2C(=O)[C@H](Cc2ccccc2)NC1=O is reported with PAMPA -6.94 (log10 cm/s).
CC(C)C[C@H]1NC(=O)[C@@H](C)N(C)C(=O)[C@H](Cc2ccccc2)NC(=O)CN(Cc2ccccc2)C(=O)[C@@H]2CCCN2C(=O)CN(Cc2ccccc2)C1=O is reported with PAMPA -5.43 (log10 cm/s).
CC(C)C[C@@H]1NC(=O)C[C@H](Cc2ccccc2)NC(=O)[C@H](Cc2ccccc2)NC(=O)[C@H](CC(C)C)N(C)C(=O)[C@@H]2CCCN2C(=O)[C@@H](CC(C)C)NC1=O is reported with PAMPA -5.05 (log10 cm/s).
CC(C)C[C@@H]1NC(=O)[C@@H](C)N(C)C(=O)[C@@H]2CCCN2C(=O)[C@H](Cc2ccccc2)NC(=O)[C@@H](CC(C)C)N(C)C(=O)[C@H]2CCCN2C(=O)[C@H](CC(C)C)NC1=O is reported with PAMPA -5.91 (log10 cm/s).
CCCN1CC(=O)N[C@@H](CC(C)C)C(=O)N(C)[C@H](CC(C)C)C(=O)N2CCC[C@@H]2C(=O)N[C@H](CC(C)C)C(=O)N[C@@H](Cc2ccccc2)C(=O)N2CCC[C@@H]2C1=O is reported with PAMPA -5.33 (log10 cm/s).
CC(C)C[C@@H]1NC(=O)[C@@H](C)N(C)C(=O)[C@H](Cc2ccccc2)NC(=O)[C@H](CC(C)C)N(C)C(=O)[C@H]2CCCN2C(=O)[C@H](CC(C)C)NC1=O is reported with PAMPA -5.41 (log10 cm/s).
CCCN1CC(=O)N(C)[C@H](CC(C)C)C(=O)N(Cc2ccccc2)CC(=O)N2CCC[C@H]2C(=O)N(C)[C@@H](CC(C)C)C(=O)N[C@@H](Cc2ccccc2)C(=O)N2CCC[C@H]2C1=O is reported with PAMPA -5.30 (log10 cm/s).

The last 2 entries again:

The entry for CC(C)C[C@@H]1NC(=O)[C@@H](C)N(C)C(=O)[C@H](Cc2ccccc2)NC(=O)[C@H](CC(C)C)N(C)C(=O)[C@H]2CCCN2C(=O)[C@H](CC(C)C)NC1=O lists PAMPA -5.41 (log10 cm/s).
The entry for CCCN1CC(=O)N(C)[C@H](CC(C)C)C(=O)N(Cc2ccccc2)CC(=O)N2CCC[C@H]2C(=O)N(C)[C@@H](CC(C)C)C(=O)N[C@@H](Cc2ccccc2)C(=O)N2CCC[C@H]2C1=O lists PAMPA -5.30 (log10 cm/s).

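Conditions beyond the assay type are not listed; see the original paper. Other peptides of the study may be missing here. Peptides that the database sets to -10, its floor, are left out.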